Among the data in PubChem BioAssay AID1423 (NMMLSC, 2008) are response (percent of control binding) values, retold here.

Chains of the proteins cited; added tags and fusions are not shown.
UniProt P09471, whole entry: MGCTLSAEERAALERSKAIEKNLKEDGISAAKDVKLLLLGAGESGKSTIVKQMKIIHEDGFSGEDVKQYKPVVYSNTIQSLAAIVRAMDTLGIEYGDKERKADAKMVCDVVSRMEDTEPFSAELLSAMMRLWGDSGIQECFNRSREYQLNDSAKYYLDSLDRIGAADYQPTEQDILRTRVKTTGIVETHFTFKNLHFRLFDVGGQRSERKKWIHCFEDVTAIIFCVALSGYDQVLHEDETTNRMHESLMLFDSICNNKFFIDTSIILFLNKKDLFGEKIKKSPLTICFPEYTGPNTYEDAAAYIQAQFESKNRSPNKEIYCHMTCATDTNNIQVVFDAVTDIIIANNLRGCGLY

The list shows a part of the results, in another mix than the full data. Calls of active or inactive are those of the source. No stated cut-off is given here; in the data, active means response below about 60% or above about 140%; inactive means in between.

For this experiment, the target named is Guanine nucleotide-binding protein G(o) subunit alpha (Homo sapiens) (UniProt P09471). In words: compounds changing RGS8 association with Galphao – biochemical, multiplexed bead flow cytometry, primary screen (AID 1423).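 Further: Galphao activated as the GDP aluminium fluoride complex binding bead-coupled RGS8.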 To be noted: at 10 µM, actives lie on both sides.
Take `Cc1ccc(OCC(C)C)c(CN(CCCl)CCCl)c1`: the response (percent of control binding) was inactive: 104%.
With `COc1ccc(NC2CCN(CCc3ccccc3)CC2)c(OC)c1`, the response (percent of control binding) is inactive: 100%.
On to `CCOc1ccc(C)cc1CN(CCCl)CCCl`, for which the response (percent of control binding) is inactive: 102%.
Then `CCOC(=O)N1CCC(Nc2ccc(OC)cc2)CC1`, with inactive: 102%.
On to `O=C(OC1CN2CCC1CC2)C1c2ccccc2Oc2ccccc21` (centres undefined), for which the response (percent of control binding) is inactive: 95.7%.
As for `N#CC1(Nc2ccccc2)CCN(Cc2ccccc2)CC1`, the response (percent of control binding) was inactive: 106%.
In the case of `O=C(NCC1(N2CCOCC2)CCCCC1)c1cc2ccccc2o1`, the response (percent of control binding) is inactive: 137%.
Then `COc1ccc(C(=O)NCC2(N3CCCCC3)CCCCC2)c(OC)c1OC`, with inactive: 102%.
For the molecule `COc1ccc(CN(CCCl)CCCl)cc1Cl`, the response (percent of control binding) is inactive: 99.9%.
Regarding `CN(C)c1cccc(C(=O)NCC2(N3CCCCC3)CCCCC2)c1`, the response (percent of control binding) is inactive: 96.1%.
Consider `CC(C)c1ccc(NC2CCN(C(=O)OC(C)(C)C)CC2)cc1`, for which the response (percent of control binding) is inactive: 104%.
With `CN1CCN(CCOC(=O)C(O)(c2ccccc2)c2ccccc2)CC1`, the response (percent of control binding) is inactive: 101%.
Regarding `COc1ccc(NC2CCN(C(=O)OC(C)(C)C)CC2)cc1`, the response (percent of control binding) is inactive: 101%.
Then `O=C(NCC1(N2CCOCC2)CCCCC1)c1cc(=O)[nH]c2ccccc12`, with inactive: 101%.
`O=C(NCC1(N2CCCCC2)CCCCC1)c1cccc([N+](=O)[O-])c1`: the response (percent of control binding) was inactive: 100%.
Take `N#CC1(Nc2ccccc2)CCN(CCc2ccccc2)CC1`: the response (percent of control binding) was inactive: 102%.
On to `c1ccc(CN2CCC(Nc3ccccc3)CC2)cc1`, for which the response (percent of control binding) was inactive: 98.3%.
Turning to `N#Cc1ccc(C(=O)NCC2(N3CCCCC3)CCCCC2)cc1`, the response (percent of control binding) is inactive: 104%.
In the case of `O=C(OC1CN2CCC1CC2)C1c2ccccc2C=Cc2ccccc21` (centres undefined), the response (percent of control binding) was inactive: 96.8%.
As for `N/C(=N\O)c1c(N)no[n+]1[O-]`, the response (percent of control binding) was inactive: 96.5%.
The same measure for `COc1ccc(C(=O)NCC2(N3CCOCC3)CCCCC2)cc1OC`: inactive: 101%.
With `CCCOc1ccc(C)cc1CN(CCCl)CCCl`, the response (percent of control binding) is inactive: 94.5%.
As to `CCC(CO)(C(=O)OC1CN2CCC1CC2)c1ccccc1` (centres undefined), the response (percent of control binding) was inactive: 98.1%.
Turning to `COc1cc(OC)cc(C(=O)NCC2(N3CCOCC3)CCCCC2)c1`, the response (percent of control binding) was inactive: 99.3%.
The same measure for `CC(C)(C)OC(=O)N1CCC(Nc2ccccc2)CC1`: inactive: 100%; for `CCOc1ncccc1C(=O)NCC1(N2CCOCC2)CCCCC1`: inactive: 122%; for `CN(C)c1ccc(C(=O)NCC2(N3CCCCC3)CCCCC2)cc1`: inactive: 94.9%.
As to `CCN1CCC(Nc2cccc(F)c2)CC1`, the response (percent of control binding) was inactive: 100%.
In the case of `Fc1ccccc1NC1CCN(Cc2ccccc2)CC1`, the response (percent of control binding) is inactive: 96.3%.
